{"source": "ChEMBL document CHEMBL3421611", "about": "“New quinolone- and 1,8-naphthyridine-3-carboxamides as selective CB2 receptor agonists with anticancer and immuno-modulatory activity” (Eur J Med Chem, 2015)", "system": "LNCaP", "test": "Cytotoxicity against human LNCAP cells expressing CB2 receptor assessed as decrease in cell viability after 72 hrs by neutral red uptake and accumulation assay", "type": "functional, cell-based"}
{"smiles": "CC1CCC(NC(=O)c2c(O)c3cccnc3n(Cc3ccc(F)cc3)c2=O)CC1", "note": "(configuration not stated)", "values": [{"measurement": "Activity", "result": "Dose-dependent effect"}]}
{"smiles": "CCCCCn1c(=O)c(C(=O)NC2CCC(C)CC2)cc2ccccc21", "note": "(configuration not stated)", "values": [{"measurement": "Activity", "result": "Dose-dependent effect"}]}
